Tests used:
[1] = tested on: Mus musculus; assay: Antinociceptive activity in Kunming mouse assessed as maximum possible effect by measuring latency threshold at 50 mg/kg, ip by hot plate test relative to control
[2] = tested on: Mus musculus; assay: Antinociceptive activity in Kunming mouse assessed as maximum possible effect by measuring latency threshold at 10 mg/kg, ip by hot plate test relative to control

| Structure (SMILES) | Activity [1] [%] | MPE [2] [%] |
| --- | --- | --- |
| COc1cccc([C@@]2(O)CCCC[C@@H]2CN(C)C)c1 | < 100 | – |
| CN(C)CC1CN(C(=O)NC23CC4CC(CC(O)(C4)C2)C3)CCC1(O)c1ccccc1.Cl (centres undefined) | – | < 100 |
| CN(C)CC1CN(C(=O)NCc2ccccc2)CCC1(O)c1ccccc1.Cl (centres undefined) | – | < 100 |
| CN(C)CC1CN(C(=O)N(C)c2cccc(Cl)c2)CCC1(O)c1ccccc1.Cl (centres undefined) | – | < 100 |
| CN(C)CC1CN(C(=O)Nc2ccc(Cl)cc2)CCC1(O)c1ccccc1.Cl (centres undefined) | – | < 100 |
| CN(C)CC1CN(C(=O)Nc2cccc(F)c2)CCC1(O)c1ccccc1.Cl (centres undefined) | – | 100 |
| COC(=O)c1ccsc1NC(=O)N1CCC(O)(c2ccccc2)C(CN(C)C)C1.Cl (centres undefined) | – | < 100 |
| CN(C)CC1CN(C(=O)Nc2ccc(Cl)c(Cl)c2)CCC1(O)c1ccccc1.Cl (centres undefined) | – | < 100 |
| C[C@H](NC(=O)N1CCC(O)(c2ccccc2)C(CN(C)C)C1)c1ccccc1.Cl (some centres undefined) | – | < 100 |
| COC(=O)c1sccc1NC(=O)N1CCC(O)(c2ccccc2)C(CN(C)C)C1.Cl (centres undefined) | – | < 100 |
| CN(C)CC1CN(C(=O)Nc2ccc3ccccc3c2)CCC1(O)c1ccccc1.Cl (centres undefined) | – | < 100 |
| CN(C)CC1CN(C(=O)Nc2cc(C(F)(F)F)cc(C(F)(F)F)c2)CCC1(O)c1ccccc1.Cl (centres undefined) | – | < 100 |
| CN(C)CC1CN(C(=O)Nc2ccc(F)c(Cl)c2)CCC1(O)c1ccccc1.Cl (centres undefined) | – | < 100 |
| CN(C)CC1CN(C(=O)Nc2cccc(Cl)c2)CCC1(O)c1ccccc1.Cl (centres undefined) | – | < 100 |
| CN(C)CC1CN(C(=O)Nc2ccccc2)CCC1(O)c1ccccc1.Cl (centres undefined) | – | 100 |
| CN(C)CC1CN(C(=O)NC23CC4CC(CC(C4)C2)C3)CCC1(O)c1ccccc1.Cl (centres undefined) | – | < 100 |
| CN(C)CC1CN(C(=O)Nc2cc(Cl)c(Cl)c(Cl)c2)CCC1(O)c1ccccc1.Cl (centres undefined) | – | < 100 |
| CC(NC(=O)N1CCC(O)(c2ccccc2)C(CN(C)C)C1)C12CC3CC(CC(C3)C1)C2.Cl (centres undefined) | – | < 100 |
| CN(C)CC1CN(C(=O)Nc2ccc(F)c(F)c2)CCC1(O)c1ccccc1.Cl (centres undefined) | – | < 100 |

Reference: ChEMBL document CHEMBL4680180, “Discovery of 3-((dimethylamino)methyl)-4-hydroxy-4-(3-methoxyphenyl)-N-phenylpiperidine-1-carboxamide as novel potent analgesic” (2020)
